Reference: patent US7410993B2, “3,6-disubstituted azabicyclo [3.1.0] hexane deriviatives useful as muscarinic receptor antagonists” (Ranbaxy Laboratories Limited, priority 2002, dated 2008)

Protein sequences, listed by entry. Tags and fused reporters are not part of them.
UniProt P08483, whole entry: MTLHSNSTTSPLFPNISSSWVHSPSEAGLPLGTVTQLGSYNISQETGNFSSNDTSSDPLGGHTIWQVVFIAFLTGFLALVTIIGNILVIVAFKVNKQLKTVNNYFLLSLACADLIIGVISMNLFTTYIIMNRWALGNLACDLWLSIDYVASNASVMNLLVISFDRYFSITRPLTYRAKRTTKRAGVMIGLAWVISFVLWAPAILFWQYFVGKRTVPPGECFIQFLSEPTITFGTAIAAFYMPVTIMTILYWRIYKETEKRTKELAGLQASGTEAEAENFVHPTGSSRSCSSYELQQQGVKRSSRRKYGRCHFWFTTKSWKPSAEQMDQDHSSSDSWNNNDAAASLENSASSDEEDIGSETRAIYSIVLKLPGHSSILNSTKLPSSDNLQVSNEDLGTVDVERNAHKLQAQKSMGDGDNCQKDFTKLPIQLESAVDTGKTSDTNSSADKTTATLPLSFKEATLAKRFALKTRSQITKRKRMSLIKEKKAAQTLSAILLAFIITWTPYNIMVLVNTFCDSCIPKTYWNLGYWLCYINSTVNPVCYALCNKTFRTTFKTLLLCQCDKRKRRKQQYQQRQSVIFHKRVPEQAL

What follows are molecules tested against T1, M3 muscarinic receptor (Rattus norvegicus, UniProt P08483) (assay: Radioligand binding assay, [3H]-N-methylscopolamine, rat submandibular gland membranes). Conditions: [3H]NMS binding.
T1 construct: Submandibular glands and heart were isolated and placed in ice cold homogenizing buffer; from tissue; host or cells: rat submandibular gland membrane homogenate

Compound	Ki
Cc1ccc(O)c(C(CCN2CC3(C)CC3(C)C2)c2ccccc2)c1 (centres unmarked) [Compound No. 4, 1-(1,5-dimethyl-3-azabicyclo[3.1.0]hex-3-yl)-3-(2-hydroxy-5-methylphenyl)-3-phenyl propane]	> 1000 nM
Cc1ccc(OCc2ccccc2)c(C(CCN2CC3(C)CC3(C)C2)c2ccccc2)c1 (centres unmarked) [Compound No. 3, 1-(1,5-dimethyl-3-azabicyclo[3.1.0]hex-3-yl)-3-(2-benzyloxy-5-methylphenyl)-3-phenyl propane]	> 10000 nM
Cc1ccc(OCc2ccccc2)c(C(CCN2CC3CC3C2)c2ccccc2)c1 (centres unmarked) [Compound No. 1, 1-(3-azabicyclo[3.1.0]hex-3-yl)-3-(2-benzyloxy-5-methylphenyl)-3-phenyl propane]	> 1000 nM
Cc1ccc(OCc2ccccc2)c(C(CCN2CC3CC3C2C)c2ccccc2)c1 (centres unmarked) [Compound No. 7, 1-(2-methyl-3-azabicyclo[3.1.0]hex-3-yl)-3-(2-benzyloxy-5-methylphenyl)-3-phenyl propane]	> 1000 nM
Cc1ccc(O)c(C(CCN2CC3CC3(C)C2)c2ccccc2)c1 (centres unmarked) [Compound No. 6, 1-(1-methyl-3-azabicyclo[3.1.0]hex-3-yl)-3-(2-hydroxy-5-methylphenyl)-3-phenyl propane]	118 nM

Now those with a lower Ki, led by results:

Ki	Compound
25 nM	Cc1ccc(O)c(C(CCN2CC3CC3C2C)c2ccccc2)c1 (single isomer, unassigned) [Compound No. 9, 1-(2-methyl-3-azabicyclo[3.1.0]hex-3-yl)-3-(2-hydroxy-5-methylphenyl)-3-phenyl propane]
50 nM	Cc1ccc(O)c(C(CCN2CC3CC3C2)c2ccccc2)c1 (centres unmarked) [Compound No. 2, 1-(3-azabicyclo[3.1.0]hex-3-yl)-3-(2-hydroxy-5-methylphenyl)-3-phenyl propane]
79 nM	Cc1ccc(O)c(C(CCN2CC3CC3C2C)c2ccccc2)c1 (single isomer, unassigned) [Compound No. 8, 1-(2-methyl-3-azabicyclo[3.1.0]hex-3-yl)-3-(2-hydroxy-5-methylphenyl)-3-phenyl propane]
